Experimental data taken from patent publication US20110136776A1, “Copper(1)Chloride Complex of Nicotinic Acid and Pharmaceutical Compositions Containing the Same” (priority 2008, published 2011).

Experiments:
[1] = when well dried and protected from light

[CuCl (Nicotinic acid)2 H20]complex [The complex]
Solubility in DMF and DMSO (DMF and DMSO): Soluble
Solubility in non polar solvents (non polar solvents, e.g. benzene, carbon tetrachloride): insoluble
Solubility in polar solvents (polar solvents: water, methanol, ethanol, acetone): insoluble
Solubility in these solvents upon heating (upon heating in inert atmosphere, otherwise oxidation takes place): soluble in these solvents upon heating in inert atmosphere
Stability [1]: sufficiently stable
